Results taken from BindingDB's records for PubMed 2250662 (Glaxo Group Research, 1990).

By UniProt entry, the sequences of proteins in these tests, tags left out. Where a name states a change or a piece, a line headed by the entry shows the natural chain unless it says otherwise.
UniProt P10980, whole entry: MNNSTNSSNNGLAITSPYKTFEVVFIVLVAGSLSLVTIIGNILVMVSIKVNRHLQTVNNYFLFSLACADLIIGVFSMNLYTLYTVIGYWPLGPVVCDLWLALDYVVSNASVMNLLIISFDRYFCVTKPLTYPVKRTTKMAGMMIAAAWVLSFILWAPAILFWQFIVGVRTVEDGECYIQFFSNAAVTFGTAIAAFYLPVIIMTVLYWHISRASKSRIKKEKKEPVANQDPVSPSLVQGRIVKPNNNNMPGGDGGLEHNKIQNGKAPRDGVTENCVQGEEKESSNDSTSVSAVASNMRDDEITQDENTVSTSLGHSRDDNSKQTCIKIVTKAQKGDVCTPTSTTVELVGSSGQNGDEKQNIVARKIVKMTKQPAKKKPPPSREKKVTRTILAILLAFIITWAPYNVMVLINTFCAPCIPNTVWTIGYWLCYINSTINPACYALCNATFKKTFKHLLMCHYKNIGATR
UniProt P08483, whole entry: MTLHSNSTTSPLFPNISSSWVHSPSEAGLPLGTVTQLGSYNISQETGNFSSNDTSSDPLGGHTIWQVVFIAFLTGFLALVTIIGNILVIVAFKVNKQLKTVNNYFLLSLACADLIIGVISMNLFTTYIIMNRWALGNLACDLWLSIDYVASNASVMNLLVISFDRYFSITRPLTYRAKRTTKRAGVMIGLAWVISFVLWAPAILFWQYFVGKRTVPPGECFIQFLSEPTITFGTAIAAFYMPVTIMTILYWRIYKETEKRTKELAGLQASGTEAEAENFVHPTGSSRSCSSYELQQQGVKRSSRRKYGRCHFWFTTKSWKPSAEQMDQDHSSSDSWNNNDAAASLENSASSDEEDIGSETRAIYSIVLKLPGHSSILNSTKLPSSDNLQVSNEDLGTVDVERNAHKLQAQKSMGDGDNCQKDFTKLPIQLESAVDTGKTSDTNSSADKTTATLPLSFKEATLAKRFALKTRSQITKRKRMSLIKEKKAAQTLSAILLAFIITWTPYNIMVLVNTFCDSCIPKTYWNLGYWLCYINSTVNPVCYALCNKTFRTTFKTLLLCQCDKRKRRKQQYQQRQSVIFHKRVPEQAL
UniProt P08482: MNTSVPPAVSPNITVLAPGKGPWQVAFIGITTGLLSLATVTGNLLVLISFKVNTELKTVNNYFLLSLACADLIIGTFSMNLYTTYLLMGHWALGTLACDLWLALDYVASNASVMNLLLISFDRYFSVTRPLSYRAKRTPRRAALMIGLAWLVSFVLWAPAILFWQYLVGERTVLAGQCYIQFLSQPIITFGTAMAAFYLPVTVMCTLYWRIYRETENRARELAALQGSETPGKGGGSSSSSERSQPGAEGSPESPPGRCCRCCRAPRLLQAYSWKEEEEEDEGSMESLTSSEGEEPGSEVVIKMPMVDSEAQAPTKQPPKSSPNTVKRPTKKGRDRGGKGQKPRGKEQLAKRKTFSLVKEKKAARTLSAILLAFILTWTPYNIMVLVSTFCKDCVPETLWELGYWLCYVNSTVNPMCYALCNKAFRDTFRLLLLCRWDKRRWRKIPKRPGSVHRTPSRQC
UniProt A0A5F9DUN4, whole entry: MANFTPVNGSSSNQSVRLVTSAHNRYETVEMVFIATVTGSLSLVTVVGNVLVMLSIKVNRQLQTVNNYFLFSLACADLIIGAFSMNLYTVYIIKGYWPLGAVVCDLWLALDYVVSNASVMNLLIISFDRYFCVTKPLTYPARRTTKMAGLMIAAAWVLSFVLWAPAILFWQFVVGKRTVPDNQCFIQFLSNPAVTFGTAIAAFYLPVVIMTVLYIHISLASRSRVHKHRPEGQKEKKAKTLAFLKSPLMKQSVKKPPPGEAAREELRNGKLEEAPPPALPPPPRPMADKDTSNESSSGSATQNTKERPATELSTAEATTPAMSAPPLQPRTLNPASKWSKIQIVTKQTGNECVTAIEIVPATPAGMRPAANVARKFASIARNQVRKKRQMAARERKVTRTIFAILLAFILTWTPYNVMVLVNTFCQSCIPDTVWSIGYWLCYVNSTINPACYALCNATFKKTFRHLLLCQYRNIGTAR

What was measured:
[1] = biological target: Muscarinic acetylcholine receptor M2 (Rattus norvegicus, UniProt P10980)
[2] = biological target: Muscarinic acetylcholine receptor M3 (Rattus norvegicus, UniProt P08483)
[3] = biological target: Muscarinic acetylcholine receptor M1 (Rattus norvegicus, UniProt P08482)
[4] = biological target: Muscarinic acetylcholine receptor (Oryctolagus cuniculus, UniProt A0A5F9DUN4)

| Structure (SMILES) | Ki [1] [nM] | Ki [2] [nM] | Ki [3] [nM] | Ki [4] [nM] |
| --- | --- | --- | --- | --- |
| CC(C)[N+]1(C)[C@@H]2CC[C@H]1CC(OC(=O)[C@@H](CO)c1ccccc1)C2 (stereo partly specified) [NSC_3746] | 0.36 | 0.37 | 0.71 |  |
| COc1ccccc1CNCCCCCCNCCCCCCCCNCCCCCCNCc1ccccc1OC [METHOCTRAMINE] |  |  | 25.1 |  |
| CN1[C@@H]2CC[C@H]1CC(OC(=O)[C@H](CO)c1ccccc1)C2 (stereo partly specified) [CAS_51-55-8] |  |  |  | 0.28 |
| CN1C2CC(OC(=O)C(CO)c3ccccc3)CC1C1OC12 (stereo unspecified) [3-hydroxy-2-phenyl-propionic acid 9-methyl-3-oxa-9-aza-tricyclo[3.3.1.0*2,4*]non-7-yl ester] | 1.41 |  |  |  |
